Publication PMC5437200, “Ionic liquids for the passive sampling of sulfonamides from water—applicability and selectivity study” (Analytical and Bioanalytical Chemistry, 2017)

What was measured:
[1] = octanol-water shake experiment for logKOW and logDOW; assay type: physicochemical
[2] = ionization degrees of sulfonamides in the donor solution (calculated); assay type: physicochemical; settings: initial pH 5.64; calculated using equations in ref 39

## sulfadiazine [SDZ]
[1]; n-octanol/ultrapure water pH 5.6, room temperature
  LogD OW pH 5.6 (exp): −0.39
[1]; n-octanol/ultrapure water, room temperature
  LogK OW (exp): −0.34
[2]
  α2 ionization degree: 100.0%
  α3 ionization degree (negatively charged form): 12.1%
